Earlier results on one compound are cited in patent US5246935A, “Piperazinyl derivatives and methods of treating central nervous system ailments relating to the 5-HT2 receptor system” (Novo Nordisk A/S, priority 1990, dated 1993).

The series deals with 5-HT2 receptor. The settings on record: cited from earlier work.

Consider `Cc1nc2n(c(=O)c1CCN1CCC(c3noc4cc(F)ccc34)CC1)CCCC2` [Risperidone], for which the “affinity for / antagonism of 5-HT2 receptor (in words)” value is given as “potent antagonist”.
